Source: ChEMBL document CHEMBL2439983, “The discovery and optimization of novel dual inhibitors of topoisomerase II and histone deacetylase” (Bioorg Med Chem, 2013)

Protein sequences, listed by entry. Tags and fused reporters are not part of them. Lines headed by an entry give the natural chain unless they say otherwise; changes in a name come on top.
UniProt O15379: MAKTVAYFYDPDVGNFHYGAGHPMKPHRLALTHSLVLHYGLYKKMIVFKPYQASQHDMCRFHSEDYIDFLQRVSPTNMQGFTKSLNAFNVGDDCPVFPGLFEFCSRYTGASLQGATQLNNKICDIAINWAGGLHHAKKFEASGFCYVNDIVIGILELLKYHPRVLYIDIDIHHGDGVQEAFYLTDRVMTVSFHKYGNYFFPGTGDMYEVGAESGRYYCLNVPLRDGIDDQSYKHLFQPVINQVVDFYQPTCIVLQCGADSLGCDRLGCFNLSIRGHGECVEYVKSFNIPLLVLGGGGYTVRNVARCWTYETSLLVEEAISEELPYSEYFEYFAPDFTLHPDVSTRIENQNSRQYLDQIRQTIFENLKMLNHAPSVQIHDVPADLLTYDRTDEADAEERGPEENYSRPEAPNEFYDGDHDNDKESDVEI
UniProt Q13547, whole entry: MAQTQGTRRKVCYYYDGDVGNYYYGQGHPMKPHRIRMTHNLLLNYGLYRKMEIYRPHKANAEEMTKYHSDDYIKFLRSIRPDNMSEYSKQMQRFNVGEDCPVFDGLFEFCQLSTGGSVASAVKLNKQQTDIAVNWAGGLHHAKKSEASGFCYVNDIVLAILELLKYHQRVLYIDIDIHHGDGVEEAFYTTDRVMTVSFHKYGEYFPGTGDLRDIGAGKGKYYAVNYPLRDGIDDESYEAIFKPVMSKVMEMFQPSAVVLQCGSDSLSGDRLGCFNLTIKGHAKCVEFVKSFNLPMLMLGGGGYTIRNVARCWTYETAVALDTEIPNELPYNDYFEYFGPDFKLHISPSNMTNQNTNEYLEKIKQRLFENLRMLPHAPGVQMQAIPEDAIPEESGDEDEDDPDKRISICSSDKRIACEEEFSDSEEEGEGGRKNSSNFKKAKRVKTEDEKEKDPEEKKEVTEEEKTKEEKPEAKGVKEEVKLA

Experiments:
[1] = biological target: T1, Protein deacetylase HDAC6 (Homo sapiens) (UniProt Q9UBN7); test: Potency index, ratio of vorinostat IC50 to compound IC50 for human recombinant HDAC6
T1 sequence (whole entry): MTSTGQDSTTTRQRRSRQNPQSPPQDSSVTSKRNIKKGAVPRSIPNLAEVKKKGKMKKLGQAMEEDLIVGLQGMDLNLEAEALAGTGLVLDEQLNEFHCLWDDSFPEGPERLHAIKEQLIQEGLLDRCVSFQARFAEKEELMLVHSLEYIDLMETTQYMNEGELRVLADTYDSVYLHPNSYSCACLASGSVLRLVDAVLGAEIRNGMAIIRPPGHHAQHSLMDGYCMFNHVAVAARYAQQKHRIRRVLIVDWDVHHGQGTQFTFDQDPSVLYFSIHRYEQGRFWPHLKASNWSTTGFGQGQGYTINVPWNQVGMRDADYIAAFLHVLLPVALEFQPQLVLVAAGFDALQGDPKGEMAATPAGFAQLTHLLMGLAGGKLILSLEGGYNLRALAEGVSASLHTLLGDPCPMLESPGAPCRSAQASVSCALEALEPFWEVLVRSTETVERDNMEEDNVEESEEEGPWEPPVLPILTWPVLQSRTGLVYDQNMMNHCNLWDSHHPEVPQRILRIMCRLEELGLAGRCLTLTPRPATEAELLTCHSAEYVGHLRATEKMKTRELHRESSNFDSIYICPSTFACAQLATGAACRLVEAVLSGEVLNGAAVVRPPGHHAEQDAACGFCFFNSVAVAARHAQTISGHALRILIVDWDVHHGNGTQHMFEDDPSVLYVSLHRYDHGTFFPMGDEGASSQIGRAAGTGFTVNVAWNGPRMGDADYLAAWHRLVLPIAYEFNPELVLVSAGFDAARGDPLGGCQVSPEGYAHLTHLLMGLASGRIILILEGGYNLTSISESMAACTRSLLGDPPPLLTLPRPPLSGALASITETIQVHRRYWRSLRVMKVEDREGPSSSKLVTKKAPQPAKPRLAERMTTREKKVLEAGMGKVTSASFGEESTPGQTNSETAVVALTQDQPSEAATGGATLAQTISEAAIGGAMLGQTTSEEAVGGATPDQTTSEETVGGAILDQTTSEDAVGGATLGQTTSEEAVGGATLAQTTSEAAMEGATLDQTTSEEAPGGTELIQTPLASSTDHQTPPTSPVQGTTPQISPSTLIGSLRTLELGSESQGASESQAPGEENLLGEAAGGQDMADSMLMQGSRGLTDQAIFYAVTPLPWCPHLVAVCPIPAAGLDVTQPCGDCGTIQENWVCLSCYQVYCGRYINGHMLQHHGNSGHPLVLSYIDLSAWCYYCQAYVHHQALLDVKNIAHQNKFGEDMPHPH

[2] = biological target: Histone deacetylase 3 (Homo sapiens, UniProt O15379); test: Potency index, ratio of vorinostat IC50 to compound IC50 for human recombinant HDAC3
[3] = biological target: Histone deacetylase 1 (Homo sapiens, UniProt Q13547); test: Potency index, ratio of vorinostat IC50 to compound IC50 for human recombinant HDAC1

Measured: Ratio IC50

COc1cc([C@@H]2c3cc4c(cc3[C@@H](Nc3cccc(OCCCCCCC(=O)NO)c3)[C@H]3COC(=O)[C@H]23)OCO4)cc(OC)c1O
10: all assays above
